Reference: US20200140841A1

Target: debrilase (Lucilia sericata)
Experiment: cell-based or functional assay

In the case of “aprotinin from bovine lung (Sigma Aldrich) (from UniProt P00974 36-93)”, the half maximal inhibitory concentration (IC50) of debrilase activity (residual activity on Z-Gly-Gly-Arg-AMC, fluorometric, PBS pH 8, 37° C.) is reported as 0.076 µM.
